Here are results for one sequence from patent publication US20020035061A1, “COMPOSITIONS AND METHODS FOR TREATING INFECTIONS USING CATIONIC PEPTIDES ALONE OR IN COMBINATION WITH ANTIBIOTICS” (priority 1996, published 2002).

Data set [1] can be described thus: Peptide levels in blood in vivo after intravenous injection. More on the design: species or system CD1 ICRBR strain mice. The protocol:
Peptide levels in plasma in vivo are measured after iv or ip administration of 80-100% of the maximum tolerated dose of peptide analogue in either formulation C1 or D. MBI 11CN in formulation C1 is injected intravenously into the tail vein of CD1 ICRBR strain mice. At various times post-injection, mice are anesthetized and blood is drawn by cardiac puncture. Blood from individual mice is centrifuged to separate plasma from cells. Plasma is then analyzed by reversed phase HPLC column. […] Each data point represents the average blood level from two mice. In this assay, the detection limit is approximately 1 μg/ml, less than 3% of the dose administered
The earliest time point at which peptide can be measured is three minutes following injection, thus, the maximum observed concentration (in μg/ml) is extrapolated back to time zero (FIG. 15). The projected initial concentration corresponds well to the expected concentration of between 35 and 45 μg/ml.
At set times post-injection, each group of animals are anesthetized, blood is drawn, and plasma obtained by centrifugation. The amount of peptide or agent in the plasma supernatant is analyzed as for the in vitro determination.

Data set [2] is described as follows: Acute single dose toxicity, intravenous route, isotonic saline. The class given is in vivo. The note with it: Swiss CD1 mice, 5 days. The protocol:
In vivo toxicity of a peptide is measured through administration of a range of doses to animals, typically mice, by a route defined in part by the intended clinical use. […]. Indolicidin analogues less toxic than indolicidin are preferred.
The acute, single dose toxicity of various indolicidin analogues is tested in Swiss CD1 mice using various routes of administration. In order to determine the inherent toxicities of the peptide analogues in the absence of any formulation/delivery vehicle effects, the peptides are all administered in isotonic saline with the final pH between 6 and 7.
Intravenous route. […]. […]

Regarding ILKKWPWWPWRRK [MBI 11CN], the “half life of free circulating peptide” value in data set [1] (formulation C1, mice) was determined as 2.1 min. Also, the “free circulating peptide in blood” value in data set [1] (formulation D, mice) is recorded as “not detectable”. For the same sequence, in data set [2], the median lethal dose (LD50) came out at 5.8 mg/kg, the LD90-100 came to 8.0 mg/kg and the MTD is on record as less than 4 mg/kg.

As usually defined, the LD50 is the dose expected to kill half of the subjects tested. A lower LD50 goes with a more toxic substance.
